We go through one substance from US9359392B2, “Dendrimer scaffolds for pharmaceutical use” (Victoria Link Limited, priority 2012, dated 2016).

A short description of the data set: Water solubility of the gadolinium complex. It is filed as physicochemical. An excerpt: 34-Gd is water soluble. […] Therefore, an alternative cation is required. Gd-DPTA is the active ingredient in Magnevist, a commercial MRI contrast agent. In Magnevist, meglumine is used to make Gd-DPTA water soluble.

For “Gadolinium complex of 2-aminoacetic acid(N,N):{6-aza-3-oxahexanyl(6,6)}2x^G1: (carboxymethyl)4-cascadane [34-Gd]”, the water solubility entry was “water soluble”.
